From ChEMBL document CHEMBL6096656, “Structure-activity relationship studies of Imidazo[1',2':1,6]pyrido[2,3-d]pyrimidine derivatives to develop selective FGFR inhibitors as anticancer agents for FGF19-overexpressed hepatocellular carcinoma” (Eur J Med Chem, 2025) come the findings set out here.

Sequences of proteins named here, by UniProt entry; tags and fusion partners are left off.
Fibroblast growth factor receptor 4 (Homo sapiens), P22455, UniProt P22455, whole entry V550L: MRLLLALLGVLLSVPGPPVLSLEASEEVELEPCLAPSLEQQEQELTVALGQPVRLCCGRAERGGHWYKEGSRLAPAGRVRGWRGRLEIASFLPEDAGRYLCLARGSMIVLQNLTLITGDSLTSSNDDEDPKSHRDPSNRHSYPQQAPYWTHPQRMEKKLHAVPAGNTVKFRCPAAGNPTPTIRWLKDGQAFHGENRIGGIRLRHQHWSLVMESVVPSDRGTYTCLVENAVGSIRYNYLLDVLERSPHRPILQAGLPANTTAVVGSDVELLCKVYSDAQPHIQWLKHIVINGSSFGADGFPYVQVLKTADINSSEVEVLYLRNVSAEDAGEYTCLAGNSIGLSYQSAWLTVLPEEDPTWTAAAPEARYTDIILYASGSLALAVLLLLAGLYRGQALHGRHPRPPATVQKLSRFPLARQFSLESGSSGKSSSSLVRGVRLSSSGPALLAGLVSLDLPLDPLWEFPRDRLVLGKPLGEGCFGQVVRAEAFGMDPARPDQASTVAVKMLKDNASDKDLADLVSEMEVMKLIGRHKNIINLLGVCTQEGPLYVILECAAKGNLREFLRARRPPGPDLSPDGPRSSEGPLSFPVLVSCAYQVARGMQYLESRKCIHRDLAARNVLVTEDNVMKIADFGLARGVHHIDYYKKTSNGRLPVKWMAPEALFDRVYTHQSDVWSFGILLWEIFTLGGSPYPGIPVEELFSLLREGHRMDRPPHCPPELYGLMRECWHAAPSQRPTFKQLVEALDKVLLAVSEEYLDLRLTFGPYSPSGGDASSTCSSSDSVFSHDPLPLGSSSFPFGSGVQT
UniProt P11362, whole entry, looked up: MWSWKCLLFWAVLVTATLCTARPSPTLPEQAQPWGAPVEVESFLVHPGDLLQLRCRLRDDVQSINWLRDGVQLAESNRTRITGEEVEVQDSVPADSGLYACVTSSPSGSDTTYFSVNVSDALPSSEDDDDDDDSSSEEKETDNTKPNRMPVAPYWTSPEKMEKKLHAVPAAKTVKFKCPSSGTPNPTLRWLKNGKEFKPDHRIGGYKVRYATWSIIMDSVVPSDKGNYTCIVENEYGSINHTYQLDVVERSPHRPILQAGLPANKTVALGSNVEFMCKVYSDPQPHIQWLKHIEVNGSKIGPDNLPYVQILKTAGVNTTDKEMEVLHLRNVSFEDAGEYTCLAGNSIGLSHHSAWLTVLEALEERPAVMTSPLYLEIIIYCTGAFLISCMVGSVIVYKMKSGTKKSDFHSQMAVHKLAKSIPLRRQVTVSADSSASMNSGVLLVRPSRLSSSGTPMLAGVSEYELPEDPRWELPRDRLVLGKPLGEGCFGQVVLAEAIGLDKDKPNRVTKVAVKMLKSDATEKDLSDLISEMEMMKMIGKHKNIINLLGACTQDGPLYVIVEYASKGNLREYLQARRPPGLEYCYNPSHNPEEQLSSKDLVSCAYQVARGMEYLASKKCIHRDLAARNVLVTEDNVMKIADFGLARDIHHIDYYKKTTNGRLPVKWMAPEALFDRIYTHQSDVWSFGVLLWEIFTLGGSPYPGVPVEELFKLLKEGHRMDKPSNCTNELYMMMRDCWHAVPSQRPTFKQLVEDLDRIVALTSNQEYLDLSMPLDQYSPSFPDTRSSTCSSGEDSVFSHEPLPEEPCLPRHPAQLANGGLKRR

For experiment [1], the system named is Fibroblast growth factor receptor 4 (Homo sapiens), P22455 [V550L]. The settings on record: dose 50.0 nM.
The test system is the same in experiment [2]. The settings on record: dose 500.0 nM.
Experiment [3] addresses Fibroblast growth factor receptor 1 (Homo sapiens) (UniProt P11362). The settings on record: dose 10.0 nM.

For the compound `C=CC(=O)N[C@H]1CCOC[C@H]1Nc1ncc2cc(-c3c(Cl)c(OC)cc(OC)c3Cl)ccc2n1` [FISOGATINIB], the inhibition in experiment [1] was found to be 0%; in experiment [2] it was 17%; in experiment [3] it was 0%.

A word on the inhibition: it is the drop in the measured response relative to a control, in per cent.
